In patent publication US11579152B2, “Engineered hERG channel proteins, vesicles and methods of identifying small molecule pharmacological agents” (priority 2016, dated 2023):

Molecular target: hERG channel (Homo sapiens, UniProt Q12809, DEL141-380/DEL871-1005)

Question: Which “Percentage inhibition (%) at 100 μM” value does the source give for Amoxillin here?
Answer: Its value is −2.6 ± 9.1%.
